Source: PMC6271714, “Hypotensive Effects and Angiotensin-Converting Enzyme Inhibitory Peptides of Reishi (Ganoderma lingzhi) Auto-Digested Extract” (Molecules, 2014)

Amino acid sequences for entries named in this document (tags omitted). Residues count along the entry.
UniProt P12821, 30-1306, species assumed: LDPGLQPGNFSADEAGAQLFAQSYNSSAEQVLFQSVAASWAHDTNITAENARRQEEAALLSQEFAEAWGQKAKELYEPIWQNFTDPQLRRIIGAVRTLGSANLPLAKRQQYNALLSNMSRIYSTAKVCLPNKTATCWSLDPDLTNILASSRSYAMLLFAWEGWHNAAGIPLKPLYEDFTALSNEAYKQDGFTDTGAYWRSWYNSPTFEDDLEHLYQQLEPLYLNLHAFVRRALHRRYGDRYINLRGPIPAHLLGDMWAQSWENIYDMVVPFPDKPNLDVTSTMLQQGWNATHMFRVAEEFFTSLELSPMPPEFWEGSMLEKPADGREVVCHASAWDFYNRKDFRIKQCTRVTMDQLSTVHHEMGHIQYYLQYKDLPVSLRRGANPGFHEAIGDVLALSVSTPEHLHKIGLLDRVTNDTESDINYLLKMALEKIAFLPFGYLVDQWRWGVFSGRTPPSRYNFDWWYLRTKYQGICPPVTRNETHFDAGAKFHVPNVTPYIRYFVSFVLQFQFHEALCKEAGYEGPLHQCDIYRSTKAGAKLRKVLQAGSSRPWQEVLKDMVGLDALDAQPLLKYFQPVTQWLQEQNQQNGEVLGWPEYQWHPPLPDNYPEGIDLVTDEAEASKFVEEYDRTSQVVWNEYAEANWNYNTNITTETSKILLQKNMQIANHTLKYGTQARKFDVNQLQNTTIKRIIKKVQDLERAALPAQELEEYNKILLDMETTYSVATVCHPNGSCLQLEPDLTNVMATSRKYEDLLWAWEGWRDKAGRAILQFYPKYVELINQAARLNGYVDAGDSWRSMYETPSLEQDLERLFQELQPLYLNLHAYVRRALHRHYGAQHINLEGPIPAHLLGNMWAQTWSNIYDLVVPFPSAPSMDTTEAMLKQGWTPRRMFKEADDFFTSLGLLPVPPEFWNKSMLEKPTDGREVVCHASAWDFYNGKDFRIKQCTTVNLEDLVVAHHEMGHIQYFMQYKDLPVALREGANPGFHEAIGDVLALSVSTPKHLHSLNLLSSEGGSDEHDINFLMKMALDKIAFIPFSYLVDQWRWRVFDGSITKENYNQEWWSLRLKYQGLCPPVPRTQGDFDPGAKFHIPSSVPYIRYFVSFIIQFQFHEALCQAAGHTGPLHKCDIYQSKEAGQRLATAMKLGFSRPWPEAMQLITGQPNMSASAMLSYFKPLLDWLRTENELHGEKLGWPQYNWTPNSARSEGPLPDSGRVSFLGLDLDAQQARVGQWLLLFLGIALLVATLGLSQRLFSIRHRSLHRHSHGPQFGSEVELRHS

Target: T1, Angiotensin-Converting Enzyme (ACE) (Homo sapiens, UniProt P12821)
T1 construct: purchased Dojindo Laboratories ACE Kit-WST A502
Test: ACE inhibition assay (Dojindo ACE Kit-WST A502)
Type: biochemical
Conditions: synthesized peptides, six concentrations 10 to 100 μg/mL; read-out: IC50 Values (μM), ACE inhibition capacity
Description: Dojindo ACE Kit-WST A502 was used for testing the ACE-inhibitory activity. Principles of the kit were described in details in a previous report. Testing procedures were run strictly according to the manufacturer’s instructions using a 96-well plate, and inhibition rate was calculated based on the comparison of optical absorbance of sample-treated wells (As), control wells (Ac) and blank wells (Ab) as in the equation below. Absorbance was measured at 450 nm using microplate reader-Biotek-ELX800 (BioTek, Winooski, VT, USA): Inhibition rate (%) = [(Ac − As)/(Ac − Ab)]×100 (1)
For the peptides, six different concentrations of each peptide, ranging from 10 to 100 μg/mL, were assayed, and dose-response curves were plotted for the calculation of the IC50 values. IPP has been proven to be an ACE inhibitor [34] and thus was used as positive control (at concentrations ranging from 0.15 to 5 μg/mL).

For `CC[C@H](C)[C@H](N)C(=O)N1CCC[C@H]1C(=O)N1CCC[C@H]1C(=O)O` [Ile-Pro-Pro, Isoleucine-Proline-Proline, reference compound], the IC50 was under 0.5 µM.
